Here are results for one molecule from patent publication US20160208018A1 (JUNO THERAPEUTICS, published 2016).

By UniProt entry, the sequences of proteins in these tests, tags left out. Residues count along the entry.
UniProt Q01973, 30-937: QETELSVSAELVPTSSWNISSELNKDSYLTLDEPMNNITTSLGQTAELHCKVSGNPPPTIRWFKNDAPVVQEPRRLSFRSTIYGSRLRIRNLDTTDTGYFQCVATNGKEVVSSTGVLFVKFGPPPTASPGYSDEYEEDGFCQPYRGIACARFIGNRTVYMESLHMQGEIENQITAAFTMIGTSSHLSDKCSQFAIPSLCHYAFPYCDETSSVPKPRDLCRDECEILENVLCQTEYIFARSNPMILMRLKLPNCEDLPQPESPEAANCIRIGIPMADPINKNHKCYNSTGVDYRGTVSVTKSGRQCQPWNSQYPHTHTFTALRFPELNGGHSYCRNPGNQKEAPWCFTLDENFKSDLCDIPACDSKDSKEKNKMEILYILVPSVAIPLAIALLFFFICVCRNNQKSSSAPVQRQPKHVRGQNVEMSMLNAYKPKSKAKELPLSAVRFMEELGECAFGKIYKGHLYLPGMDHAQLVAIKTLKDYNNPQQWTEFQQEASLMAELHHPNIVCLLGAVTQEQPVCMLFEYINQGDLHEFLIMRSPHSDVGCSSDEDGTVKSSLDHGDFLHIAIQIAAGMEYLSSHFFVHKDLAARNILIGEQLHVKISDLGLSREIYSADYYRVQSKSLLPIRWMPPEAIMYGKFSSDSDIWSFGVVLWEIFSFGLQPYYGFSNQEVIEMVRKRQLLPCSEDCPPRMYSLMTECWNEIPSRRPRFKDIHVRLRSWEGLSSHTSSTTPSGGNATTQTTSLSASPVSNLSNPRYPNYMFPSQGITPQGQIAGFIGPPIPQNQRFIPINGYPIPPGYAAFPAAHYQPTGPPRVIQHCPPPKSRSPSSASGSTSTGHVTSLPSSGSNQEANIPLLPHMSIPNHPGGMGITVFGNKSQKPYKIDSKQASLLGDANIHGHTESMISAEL

Assay [1] has as its target T1, Human ROR1 (receptor tyrosine kinase-like orphan receptor 1) (human, UniProt Q01973).
T1 construct: also called hROR1; K562/ROR1
Kind of assay: flow cytometry on ROR1-expressing K562 and CHOK1 cells (n = 1).

In assay [2] the target is T1, Human ROR1 (receptor tyrosine …). Kind of assay: flow cytometry competition, competitor 2 nM Myc-R12 scFv on ROR1/K562 cells (n = 1). On the procedure:
(§1) Assays also were performed to assess competition of the clones with the reference antibody (R12 scFv), for binding to ROR1-expressing cells. VH clones were titrated against 2 nM Myc-R12 on ROR1/K562 cells and competition assessed with an anti-Myc-Alexa647 secondary antibody, and the half maximal inhibitory concentration (IC₅₀) determined for respective clones.

Assay [3] has the same target. Kind of assay: flow cytometry on ROR1-expressing cells; predicted plateau relative to R12 scFv = 100%. How it is done:
(§2) Additionally, percent (%) maximum (max) binding to ROR1-expressing cells and % max competition with the reference antibody (R12 scFv) were calculated. Percent max binding and competition values were calculated based on predicted plateaus (measured by Prism® using four parameter non-linear regression), relative to values for R12 scFv binding and inhibition, respectively, assigned as 100% in each study.

For assay [4] the target is unchanged. In words: competition with Myc-R12 scFv on ROR1/K562 cells; predicted plateau relative to R12 scFv = 100%. On the procedure:
as §1, §2

B1: Clone V357 (VHH)
VHH: EVQLVESGGGLVKPGGSLRLSCAASGFTFSNAWMSWVRQAPGKGLEWVGRIKSKTDGGTTDYAAPVKGRFTISRDDSKNTLYLQMNSLKTEDTAVYYCARDMVGAWLVLSYFDYWGQGTLVTVSS
notes: human VH-only single-domain antibody, no VL
As to B1, the EC50 in assay [1] was 46 nM. The same molecule yielded an IC50 in assay [2] of 74 nM. Besides, the “% Max Binding” value in assay [3] is 22%. In assay [4], the “% Max Competition” value is 44%.
